Data: patent US12171806B2, “Therapeutic regimens and methods for lowering blood glucose and/or body weight using GLP-1R and GCGR balanced agonists” (priority 2021, dated 2024)

Test: Phase 1 MAD study of ALT-801: adverse events (TEAEs), safety overview
Conditions: M2 1.8 mg (N = 9)

CC[C@H](C)[C@H](NC(=O)[C@H](Cc1ccccc1)NC(=O)[C@H](CCC(=O)O)NC(=O)[C@@H]1CCCCNC(=O)CC[C@H](NC(=O)[C@H](CC(=O)O)NC(=O)[C@H](CC(C)C)NC(=O)[C@H](Cc2ccc(O)cc2)NC(=O)[C@H](CCCCN)NC(=O)[C@H](CO)NC(=O)[C@H](Cc2ccc(O)cc2)NC(=O)[C@H](CC(=O)O)NC(=O)[C@H](CO)NC(=O)[C@@H](NC(=O)[C@H](Cc2ccccc2)NC(=O)[C@@H](NC(=O)CNC(=O)[C@H](CCC(N)=O)NC(=O)C(C)(C)NC(=O)[C@@H](N)Cc2c[nH]cn2)[C@@H](C)O)[C@@H](C)O)C(=O)N[C@@H](CCCCNC(=O)[C@H]2O[C@@H](OCCCCCCCCCCCCCCCCCC(=O)O)[C@H](O)[C@@H](O)[C@@H]2O)C(=O)N[C@@H](C)C(=O)N[C@@H](C)C(=O)N1)C(=O)N[C@@H](CCC(N)=O)C(=O)N[C@@H](Cc1c[nH]c2ccccc12)C(=O)N[C@@H](CC(C)C)C(=O)N[C@@H](CC(C)C)C(=O)N[C@@H](CCC(N)=O)C(=O)N[C@H](C(N)=O)[C@@H](C)O [ALT-801, pemvidutide]
TEAE Diarrhoea; Moderate; %: (0.0%)
TEAE Diarrhoea; Moderate; n: 0
TEAE Diarrhoea; PLT; %: (0.0%)
TEAE Diarrhoea; PLT; n: 0
TEAE Diarrhoea; Severe; %: (0.0%)
TEAE Diarrhoea; Severe; n: 0
TEAE Dyspepsia; Mild; %: (0.0%)
TEAE Dyspepsia; Mild; n: 0
TEAE Dyspepsia; Moderate; %: (0.0%)
TEAE Dyspepsia; Moderate; n: 0
TEAE Dyspepsia; PLT; %: (0.0%)
TEAE Dyspepsia; PLT; n: 0
TEAE Dyspepsia; Severe; %: (0.0%)
TEAE Dyspepsia; Severe; n: 0
TEAE Early satiety; Mild; %: (0.0%)
TEAE Early satiety; Mild; n: 0
TEAE Early satiety; Moderate; %: (0.0%)
TEAE Early satiety; Moderate; n: 0
TEAE Early satiety; PLT; %: (0.0%)
TEAE Early satiety; PLT; n: 0
TEAE Early satiety; Severe; %: (0.0%)
TEAE Early satiety; Severe; n: 0
TEAE Eye disorders; Mild; %: (0.0%)
TEAE Eye disorders; Mild; n: 0
TEAE Eye disorders; Moderate; %: (0.0%)
TEAE Eye disorders; Moderate; n: 0
TEAE Eye disorders; PLT; %: (0.0%)
TEAE Eye disorders; PLT; n: 0
TEAE Eye disorders; Severe; %: (0.0%)
TEAE Eye disorders; Severe; n: 0
TEAE Eye pain; Mild; %: (0.0%)
TEAE Eye pain; Mild; n: 0
TEAE Eye pain; Moderate; %: (0.0%)
TEAE Eye pain; Moderate; n: 0
TEAE Eye pain; PLT; %: (0.0%)
TEAE Eye pain; PLT; n: 0
TEAE Eye pain; Severe; %: (0.0%)
TEAE Eye pain; Severe; n: 0
TEAE Fatigue; Mild; %: (11.1%)
TEAE Fatigue; Mild; n: 1
TEAE Fatigue; Moderate; %: (0.0%)
TEAE Fatigue; Moderate; n: 0
TEAE Fatigue; PLT; %: (0.0%)
TEAE Fatigue; PLT; n: 0
TEAE Fatigue; Severe; %: (0.0%)
TEAE Fatigue; Severe; n: 0
TEAE Food poisoning; Mild; %: (0.0%)
TEAE Food poisoning; Mild; n: 0
TEAE Food poisoning; Moderate; %: (11.1%)
TEAE Food poisoning; Moderate; n: 1
TEAE Food poisoning; PLT; %: (0.0%)
TEAE Food poisoning; PLT; n: 0
TEAE Food poisoning; Severe; %: (0.0%)
TEAE Food poisoning; Severe; n: 0
TEAE Fungal infection; Mild; %: (0.0%)
TEAE Fungal infection; Mild; n: 0
TEAE Fungal infection; Moderate; %: (0.0%)
TEAE Fungal infection; Moderate; n: 0
TEAE Fungal infection; PLT; %: (0.0%)
TEAE Fungal infection; PLT; n: 0
TEAE Fungal infection; Severe; %: (0.0%)
TEAE Fungal infection; Severe; n: 0
TEAE Fungal skin; Mild; %: (0.0%)
TEAE Fungal skin; Mild; n: 0
TEAE Gastrointestinal disorders; Mild; %: (55.6%)
TEAE Gastrointestinal disorders; Mild; n: 5
TEAE Gastrointestinal disorders; Moderate; %: (33.3%)
TEAE Gastrointestinal disorders; Moderate; n: 3
TEAE Gastrointestinal disorders; PLT; %: (0.0%)
TEAE Gastrointestinal disorders; PLT; n: 0
TEAE Gastrointestinal disorders; Severe; %: (0.0%)
TEAE Gastrointestinal disorders; Severe; n: 0
TEAE Haematemesis; Mild; %: (0.0%)
TEAE Haematemesis; Mild; n: 0
TEAE Haematemesis; Moderate; %: (0.0%)
TEAE Haematemesis; Moderate; n: 0
TEAE Haematemesis; PLT; %: (0.0%)
TEAE Haematemesis; PLT; n: 0
TEAE Haematemesis; Severe; %: (0.0%)
TEAE Haematemesis; Severe; n: 0
TEAE Infections and infestations; Mild; %: (33.3%)
TEAE Infections and infestations; Mild; n: 3
TEAE Infections and infestations; Moderate; %: (0.0%)
TEAE Infections and infestations; Moderate; n: 0
TEAE Infections and infestations; PLT; %: (0.0%)
TEAE Infections and infestations; PLT; n: 0
TEAE Infections and infestations; Severe; %: (0.0%)
TEAE Infections and infestations; Severe; n: 0
TEAE Injection site bruising; Mild; %: (0.0%)
TEAE Injection site bruising; Mild; n: 0
